Data taken from patent US20260240844A1, “INHIBITORS OF CHD1L AND USES THEREOF” (The Regents of the University of Colorado, a body corporate, priority 2023, published 2026).
Entries after “also recorded” stand apart in the source; their conditions may differ.

Experiment: Pharmacokinetics in mice

Cc1cc(Nc2ccc(NC(=O)Cc3cc(Br)cs3)cc2)nc(N2CCCC2)n1 [Compound 6.11, 2-(4-bromothiophen-2-yl)-N-(4-((6-methyl-2-(pyrrolidin-1-yl)pyrimidin-4-yl)amino)phenyl)acetamide]
oral bioavailability: oral bioavailability; also recorded: orally bioavailable
